# Experimental logP (octanol/water) values from OPERA 2.9

Data: OPERA 2.9 data sets, kmansouri/OPERA on GitHub.

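OPERA's authors assembled the values from existing databases and did not measure them anew. A listed value is a point estimate from one report or more. Conditions of the individual experiments are not part of the data. The measured form (salt, isomer or mixture) is not always the one drawn. Some entries may be limits or estimates that an upstream database listed as plain numbers.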

The octanol-water partition coefficient is given as log10; larger values mean a more lipophilic compound. Cells with "n/a" have no entry in this list. "via" names the databases from which the curators took the value.

O=[N+]([O-])c1cc(O)ccc1NCCCO [4-Hydroxypropylamino-3-nitrophenol] has logP 1.35 (via eChemPortal).
COCCOCCOc1cc(Nc2c(C)cc(C)c(S(=O)(=O)[O-])c2C)c2c(c1N)C(=O)c1ccccc1C2=O.[Na+] has logP -0.27 (via eChemPortal).
NCCCOCCOCCO [Ethanol, 2-[2-(3-aminopropoxy)ethoxy]-] has logP -1.47 (via eChemPortal).
NNC(=O)CCO [3-hydroxypropanehydrazide] has logP -1 (via OCHEM).
C1CCCCCC2=C(CCCC1)CCCO2 has logP 5.07 (via eChemPortal).
Cc1ccccc1NC(=N)NC(=N)N [1-(o-Tolyl)biguanide] has logP 0.71 (via eChemPortal).
COC(=O)c1ccc(C(=O)O)cc1[N+](=O)[O-] [4-(Methoxycarbonyl)-3-nitrobenzoic acid] has logP 1.26 (via eChemPortal).
CCOC(=O)C(=Cc1ccc(C=C(C(=O)OCC)C(=O)OCC)cc1)C(=O)OCC has logP 3.39 (via eChemPortal).
CC1(C)O[C@@H]2C[C@H]3[C@@H]4C[C@H](F)C5=CC(=O)CC[C@]5(C)[C@H]4[C@@H](O)C[C@]3(C)[C@]2(C(=O)CO)O1 [Flurandrenolide] has logP 0.6 (via PubChem).
CC(=O)Oc1cccc(C(C)=O)c1 [m-Acetylphenyl acetate] has logP 1.4 (via eChemPortal).
CC1=C([O-])C(O)CC(C)(C)C1=O.[Na+] (centres undefined) has logP -4.274 (via eChemPortal).
Cc1ccc2nc(-c3ccc(/N=N/c4ccc(-c5nc6ccc(C)c(S(=O)(=O)[O-])c6s5)cc4)cc3)sc2c1S(=O)(=O)[O-].[Na+].[Na+] has logP -2.68 (via eChemPortal).
COC(=O)OC1CCC=CCCC1 (centres undefined) [Cyclooct-4-en-1-yl methyl carbonate] has logP 2.9 (via eChemPortal).
CC(C)(C)c1ccc(Nc2ccc(Nc3ccc(C(C)(C)C)cc3S(=O)(=O)[O-])c3c2C(=O)c2c(O)ccc(O)c2C3=O)c(S(=O)(=O)[O-])c1.[Na+].[Na+] has logP -1 (via eChemPortal).
Nc1c(/N=N/c2ccc(S(=O)(=O)CCOS(=O)(=O)[O-])cc2)c(S(=O)(=O)[O-])cc2cc(S(=O)(=O)[O-])c(/N=N/c3ccc(S(=O)(=O)CCOS(=O)(=O)[O-])cc3)c(O)c12.[Na+].[Na+].[Na+].[Na+] [C.I. reactive black 5] has logP -4.34 (via eChemPortal).
CC(C)(C)CCCCC(=O)O [Neononanoic acid] has logP 3.13 (via eChemPortal).
COc1ccc([N+](=O)[O-])cc1N=NC(C(C)=O)C(=O)Nc1ccccc1OC (centres undefined) has logP 2.55 (via eChemPortal).
Oc1cc(O)c(Cl)cc1Cl [4,6-Dichloro-1,3-benzenediol] has logP 2.32 (via OCHEM).
CC(=O)/C=C(\C)[C@@]12CCC[C@@]3(C)[C@@H]1CC[C@@]3(C)C2 has logP 5.56 (via eChemPortal).
C=CC(C)(CCC=C(C)C)OC=O (centres undefined) [Linalyl formate] has logP 3.71 (via eChemPortal).
CC(C)c1ccc(S(=O)(=O)[O-])cc1.[K+] [Potassium 4-isopropylbenzenesulfonate] has logP -1.4 (via eChemPortal).
O=c1c2ccc3c(=O)n4c5ccccc5nc4c4ccc(c2c34)c2nc3ccccc3n12 [Algol Bordeaux RR] has logP 0.165 (via eChemPortal).
CC(C)(C)C(=O)OCn1cnc2c(cnn2COC(=O)C(C)(C)C)c1=O has logP 2.5 (via OCHEM).
CC(COC(=O)c1ccccc1)OC(=O)c1ccccc1 (centres undefined) [Propylene glycol dibenzoate] has logP 3.9 (via eChemPortal).
CC(C)(C)C(=O)OCCc1ccccc1 [2-Phenylethyl pivalate] has logP 3.86 (via eChemPortal).
C=CCOC(=O)CC(C)=O [Allyl acetoacetate] has logP 1.4 (via eChemPortal).
Cc1cc(O)c(C(=O)N[C@@H](C(=O)N[C@@H]2C(=O)N3C(C(=O)O)=C(CSc4nnnn4C)CS[C@H]23)c2ccc(O)cc2)cn1 [Cefpiramide] has logP -0.9 (via PubChem).
O=C(OCn1[nH]cc2c(=O)ncnc1-2)c1cccc(Cn2ccnc2)c1 has logP 0.97 (via OCHEM).
CCOc1ccc(Cc2cc([C@@H]3O[C@H](COC(C)=O)[C@@H](OC(C)=O)[C@H](OC(C)=O)[C@H]3OC(C)=O)ccc2Cl)cc1 has logP 4.75 (via eChemPortal).
CC(=O)OCCN(CCC#N)c1ccc(N=Nc2ccc([N+](=O)[O-])cc2Cl)cc1 has logP 4.03 (via eChemPortal).
CC1CCC(C(C)C)C(OC(=O)c2cccnc2)C1 (centres undefined) [5-Methyl-2-(propan-2-yl)cyclohexyl pyridine-3-carboxylate] has logP 5.09 (via eChemPortal).
CCCCCCCCn1sc(Cl)c(Cl)c1=O [4,5-Dichloro-2-octyl-3(2H)-isothiazolone] has logP 4.5 (via PubChem).
C/C(C#C[C@]1(O)[C@H](C)C[C@@H](O)CC1(C)C)=C\CO has logP 0.5 (via eChemPortal).
CC=CC1=C(C(=O)O)N2C(=O)[C@@H](NC(=O)[C@H](N)c3ccc(O)cc3)[C@H]2SC1 [Cefprozil] has logP 0.6 (via PubChem).
CCC(=O)[C-]1C(=O)CC(C(=O)[O-])CC1=O.CCC(=O)[C-]1C(=O)CC(C(=O)[O-])CC1=O.[Ca+2].[Ca+2] [Prohexadione-calcium] has logP -2.9 (via OCHEM, PubChem).
CCC(C)(O)CCCC(C)C (centres undefined) [3,7-Dimethyl-3-octanol] has logP 3.6 (via OFMPub, eChemPortal).
O=Cc1ccc(Br)cc1 [Benzaldehyde, 4-bromo-] has logP 2.75 (via OCHEM).
Nc1ccc(N)c(Cl)c1 [2-Chloro-1,4-diaminobenzene] has logP 0.44 (via eChemPortal).

Repeated from above, the 3 entries with the highest logP:

| SMILES | name | logP | via |
|---|---|---|---|
| CC(=O)/C=C(\C)[C@@]12CCC[C@@]3(C)[C@@H]1CC[C@@]3(C)C2 | n/a | 5.56 | eChemPortal |
| CC1CCC(C(C)C)C(OC(=O)c2cccnc2)C1 (centres undefined) | 5-Methyl-2-(propan-2-yl)cyclohexyl pyridine-3-carboxylate | 5.09 | eChemPortal |
| C1CCCCCC2=C(CCCC1)CCCO2 | n/a | 5.07 | eChemPortal |